Like-named read-outs stand apart in the source and are kept apart here.
Assays:
[1] = TDM4652g
[2] = system: patients with HER2-positive MBC; details: 3.6 mg/kg every 3 weeks
[3] = system: patients with HER2-positive MBC; details: for maximum tolerated dose (MTD): IV
[4] = 2.9 mg/kg weekly, 3 patients treated
[5] = 3.6 mg/kg every 3 weeks, 15 patients

Substance: T-DM1
- PK of T-DM1 in the presence of paclitaxel [1]: comparable with historical phase I data
- patients with Grade 3-4 adverse events ([2]; 112 patients enrolled): 40 patients
- patients requiring dose reduction ([2]; of 112 patients): 3 patients
- patients unable to receive Day 8 dosing because of Grade 3 thrombocytopenia [3, 4]: 2 patients
- patients with DLT (Grade 3-4 thrombocytopenia that prevented retreatment) [3, 4]: 2 patients
- DLTs [3, 5]: no DLTs were observed
- Grade 4 toxicity [3, 5]: No Grade 4 toxicity
- patients with DLT (Grade 3-4 thrombocytopenia that prevented retreatment) ([3]; 4.8 mg/kg every 3 weeks, 3 patients treated): 2 patients
- clinically significant bleeding events ([3]; both schedules): No clinically significant bleeding events
- serious adverse events considered possibly related to study drug (pulmonary hypertension) ([3]; both schedules): One
- toxicity, character ([3]; both schedules): mild, reversible, and noncumulative
- Grade ≧2 adverse events at the MTD ([3]; either schedule): infrequent and manageable
- incidence of the most common Grade ≧2 adverse events (thrombocytopenia, nausea (weekly schedule), fatigue, headaches) ([3]; either schedule): > 25%
- dose recommended for the Phase II study ([3]; every 3 weeks): 3.6 mg/kg
- maximum tolerated dose (MTD) ([3]; every-3-week schedule): 3.6 mg/kg
- dose-limiting cardiotoxicity ([3]; preliminary safety data): No dose-limiting cardiotoxicity
- tolerability of treatment ([3]; weekly and every-3-week schedules): well tolerated
- maximum tolerated dose (MTD) ([3]; weekly schedule): 2.4 mg/kg
